## Apparent affinities of Ab-14 variants for a coronavirus HR2 peptide

Values reported by Engelhart et al. 2022, doi:10.1038/s41597-022-01779-4 (FLAb copy).

Target peptide (SARS-CoV-2 spike, HR2 region): PDVDLGDISGINAS

Ab-14 is the parent antibody, in scFv form: VH, then three GGGGS repeats, then VL. The light chain is unchanged in all variants.
VH: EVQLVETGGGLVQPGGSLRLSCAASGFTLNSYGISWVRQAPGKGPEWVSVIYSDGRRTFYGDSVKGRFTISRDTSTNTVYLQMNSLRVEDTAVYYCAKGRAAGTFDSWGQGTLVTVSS
VL: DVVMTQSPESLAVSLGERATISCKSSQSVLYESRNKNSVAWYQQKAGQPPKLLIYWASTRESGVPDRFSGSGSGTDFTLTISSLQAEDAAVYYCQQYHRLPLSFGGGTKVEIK

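The starting antibody came from a phage panning campaign against this peptide. The library (AAYL49) carries one to three amino acid substitutions per variant, with no insertions or deletions. Affinity was read by AlphaSeq, a pooled yeast mating assay with surface-displayed partners. The frequency of each diploid, read from paired DNA barcodes, reflects how well the two displayed proteins bind. Read counts were normalised to the haploid input and turned into Kd by a linear fit to BCL2-family pairs of known affinity, for each replicate. There are three technical replicates.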

Variants are written as CDR1, CDR2 and CDR3 of the heavy chain (limits as in the source). Parent: GFTLNSYGIS, VIYSDGRRTFYGDSVK, GRAAGTFDS. All variants listed here change Y32 of the VH, counted from its first residue. Values are apparent Kd, the geometric mean of the replicates that gave a signal; lower means stronger binding. An entry "nd" has no value in the source: the pair was not observed among the diploids in any replicate. This suggests poor binding but is not conclusive.

For GFTLNSAGIS / VIYSDGRRTFEGDSVK / GRPAGTFDS, the assay gave 38 µM (1 of 3 replicates). With LFTLNSCGIS / VIYSDLRRTFYGDSVK / GRAAGTFDS the result was 620 nM (1 of 3 replicates). For GFTLNSEGIS / VIYSDGRRTFYGDSVK / GRAGGKFDS, the assay gave 810 nM (3 of 3 replicates). The variant GFTLNSPGIS / VIYSDGRRTFYGNSVK / GRAAGTFDS gave nd (0 of 3 replicates). For GFTLNSEIIS / VFYSDGRRTFYGDSVK / GRAAGTFDS, the assay gave nd (0 of 3 replicates). For GFTLNSTGIS / VIYSDGRRTFYGDSVK / GRAAGTFYS, the assay gave 800 nM (1 of 3 replicates). The variant GFTLISKGIS / VRYSDGRRTFYGDSVK / GRAAGTFDS showed 14 µM (2 of 3 replicates). With GFTLNSWGIS / VIYSDGRRTFLGDSVK / GRAWGTFDS the result was 1.6 µM (1 of 3 replicates). For GFTFNSTGDS / VIYSDGRRTFYGDSVK / GRAAGTFDS, the assay gave nd (0 of 3 replicates).

With GFTLNSEGIS / VIYSSGRRTFYGDSVK / GRNAGTFDS the result was nd (0 of 3 replicates). With GFTLNSAGIS / VIYSDGRRTFYGDSVK / GRAAGTFDH the result was nd (0 of 3 replicates). The variant GFTLNSAGIS / DITSDGRRTFYGDSVK / GRAAGTFDS gave nd (0 of 3 replicates). For GFTLNSGGIS / VIYSDGRRTFYGDSVK / GRAAGTFCS, the assay gave 2.2 µM (1 of 3 replicates). The variant GFTLNSVGIS / VIYSDGRRDFYKDSVK / GRAAGTFDS gave 23 µM (1 of 3 replicates). For GFTLNYLGIS / VIYSDGRRTFYGDGVK / GRAAGTFDS, the assay gave nd (0 of 3 replicates). The variant GFTLNSSGIS / VIYSDGRRTFYGTSVK / GRAIGTFDS showed 12 µM (1 of 3 replicates). The variant GFTLNSDGIS / VIYSDGRRTFYGDSVD / GRNAGTFDS showed nd (0 of 3 replicates). With GFTLWSSGIS / VIYSDGRRTFYGDSVK / GRAAGTFDS the result was nd (0 of 3 replicates).

With GFTLNSVGIS / VIYSDGRRTFYGDSVK / GRAAGTTDS the result was 540 nM (3 of 3 replicates). For GFTLNSHGIS / VIVNDGRRTFYGDSVK / GRAAGTFDS, the assay gave 1.2 µM (1 of 3 replicates). For GFTLNSDGIS / VIRSDGRRTFYGDHVK / GRAAGTFDS, the assay gave 470 µM (1 of 3 replicates). The variant GFTLNSIGII / VIYSDGRRTFYGDSVK / GRAAGTFHS showed 8.4 µM (1 of 3 replicates). The variant GFTLNSHGIS / VIYSDGRRTFYGDLVK / GRAMGTFDS gave 5.4 µM (1 of 3 replicates). The variant GFTLNSEGIP / VIYSDGRRTFIGDSVK / GRAAGTFDS showed nd (0 of 3 replicates). With GFTLNSFGIS / VIYSNGRRTFYGDSVG / GRAAGTFDS the result was 32 µM (3 of 3 replicates). For GFTLNSKGIS / VIYSDGRRTFYGNSVH / GRAAGTFDS, the assay gave nd (0 of 3 replicates). With GFTLNSEGIS / VIYSDGRRTFYGDSVH / MRAAGTFDS the result was nd (0 of 3 replicates).

With GFTLNSAGIS / VICSDGRRTFYGDSVK / PRAAGTFDS the result was 210 µM (2 of 3 replicates). For GFTLNNWGIS / VIYSDGRRTFYGDSVK / GRACGTFDS, the assay gave 68 µM (3 of 3 replicates). With GFTLNSQGIS / VIYSDGRRTWYGDSIK / GRAAGTFDS the result was 590 nM (1 of 3 replicates). With GFTLNSVGIS / VIFSDGRRTFYGDSVK / GRAAGTFKS the result was nd (0 of 3 replicates). With GFTLNSIGIS / VIYSIGRRTFYGDSVK / GRAAGTFDS the result was nd (0 of 3 replicates). The variant GFTLWSMGIS / VIYSDGRRTFYGDSVK / LRAAGTFDS showed 56 µM (1 of 3 replicates). The variant GFTLNSTGIS / VIYSDGRWTFYGDSAK / GRAAGTFDS showed nd (0 of 3 replicates). With GFTLSSFGYS / VIYSDGRRTFYGDSVK / GRAAGTFDS the result was 75 µM (2 of 3 replicates). The variant GFTLNSWGIS / VIYSDGRRTFYGDSVK / GRAAGTDDS showed 980 nM (1 of 3 replicates).

The variant GFTLNSFGIS / VIYCDGRRTFYGLSVK / GRAAGTFDS showed nd (0 of 3 replicates). The variant GFTLNSEGIS / VIYSDGRRRFYGDSEK / GRAAGTFDS showed nd (0 of 3 replicates). The variant GFYLNSAGIS / VIYSDGRRTFYGDSVK / GRAKGTFDS showed 12 µM (2 of 3 replicates). For GFTLNSVGGS / VIYSDGRRTFYGDSVK / GWAAGTFDS, the assay gave nd (0 of 3 replicates). For GRTLNSAGIS / VIYSDGRRTFYGDSVQ / GRAAGTFDS, the assay gave 3.2 mM (1 of 3 replicates). With GFTLNSFGIS / VIYSDGRRTFYGDSVK / GRAAVTFDS the result was nd (0 of 3 replicates). The variant GFTVNSRGIS / VIYSDGRRTFYGDSVK / GRAAGDFDS gave 4.2 µM (1 of 3 replicates). For GNTKNSQGIS / VIYSDGRRTFYGDSVK / GRAAGTFDS, the assay gave 38 µM (1 of 3 replicates). The variant GFTGNSCGIS / KIYSDGRRTFYGDSVK / GRAAGTFDS showed nd (0 of 3 replicates).

The variant GFTLWSSGIS / VIYSDGRRIFYGDSVK / GRAAGTFDS gave 830 nM (3 of 3 replicates). For GFTLNSLGIS / VIYSDGRITFYGDSVK / GRAADTFDS, the assay gave 650 nM (1 of 3 replicates). With GFTLTSRGIS / VIYSDGRRTFYGDSVK / GRWAGTFDS the result was 12 µM (2 of 3 replicates). With GFTLNSTGIS / VIYSDGRRTQYGDSVK / FRAAGTFDS the result was nd (0 of 3 replicates). The variant GFTLNSLGIS / VIYVYGRRTFYGDSVK / GRAAGTFDS gave 2.6 µM (2 of 3 replicates). For GFTLNSTGIS / GIYSDGRRTFYGDSVK / GRAAGTFDH, the assay gave 2.2 µM (1 of 3 replicates). For GFTLNSIGIS / VIYSDGKRTFYGDSVK / ARAAGTFDS, the assay gave nd (0 of 3 replicates).

4 of these entries, quoted again:

GFTLNSVGIS / VIYSDGRRDFYKDSVK / GRAAGTFDS: 23 µM (1 of 3 replicates).
GFTLISKGIS / VRYSDGRRTFYGDSVK / GRAAGTFDS: 14 µM (2 of 3 replicates).
GFTLNSFGIS / VIYSDGRRTFYGDSVK / GRAAVTFDS: nd (0 of 3 replicates).
GFTLNSKGIS / VIYSDGRRTFYGNSVH / GRAAGTFDS: nd (0 of 3 replicates).

Empty control strains, which show no peptide, gave a signal in 15% of pairings with library AAYL49; the median was 11 µM and 95% of these signals were weaker than 680 nM. No background was subtracted.